Experimental data from patent US7375098B2, “8β-vinyl-11β-(ω-substituted)alkyl-estra-1,3,5(10)-trienes” (Schering A.G., priority 2003, dated 2008).

Protein sequences, listed by entry. Tags and fused reporters are not part of them.
UniProt Q92731, whole entry, species assumed: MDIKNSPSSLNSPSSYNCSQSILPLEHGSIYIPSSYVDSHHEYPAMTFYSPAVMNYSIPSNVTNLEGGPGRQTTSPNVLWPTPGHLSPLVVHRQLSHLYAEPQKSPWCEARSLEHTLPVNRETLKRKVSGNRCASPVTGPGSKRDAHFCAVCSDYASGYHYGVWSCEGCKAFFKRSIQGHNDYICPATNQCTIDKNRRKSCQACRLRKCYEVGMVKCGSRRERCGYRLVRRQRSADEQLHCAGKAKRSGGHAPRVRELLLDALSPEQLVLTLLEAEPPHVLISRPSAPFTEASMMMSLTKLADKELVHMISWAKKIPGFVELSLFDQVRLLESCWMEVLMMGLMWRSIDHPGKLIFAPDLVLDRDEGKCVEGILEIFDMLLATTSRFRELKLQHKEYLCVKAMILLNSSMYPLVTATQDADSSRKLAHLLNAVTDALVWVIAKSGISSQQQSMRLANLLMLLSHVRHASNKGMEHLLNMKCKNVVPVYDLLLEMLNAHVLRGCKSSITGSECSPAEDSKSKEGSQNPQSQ

Target: T1, ERβ (Homo sapiens, UniProt Q92731)
T1 construct: pSG5-ERα/β FL (Heg0/ERβ0); expressed in transfected cells; host or cells: U-20S (U-2 OS) cells, transient transfection with FuGENE 6
Assay: Transactivation test for estrogenic agonists and antagonists, ERβ, U-20S cells, luciferase reporter
Format: cell-based

In the case of `C[C@]12CC[C@@H]3c4ccc(O)cc4C[C@@H](CCCCCCCCC[S+]([O-])CCCC(F)(F)C(F)(F)F)[C@H]3[C@@H]1CC[C@@H]2O` (some centres unmarked) [Ref.^1, fulvestrant, reference compound], the “Efficacy[%] ERβ” value (luciferase activity) is reported as 100% and the “EMR (EC50 )[%] ERβ” value (potency relative to reference fulvestrant = 100) is reported as 100%.
